Measurements from patent publication USRE37101E, “Stabilized phosphate ester-based functional fluid compositions” (Solutia Inc., priority 1997, dated 2001).

Tested on: Hen
Assay: Hen neurotox
Assay type: in vivo

## CCCCOP(=O)(OCCCC)OCCCC
  LD50 (hen neurotox test level): 1500 mg/kg
